# Assay results from patent publication US20140120083A1 (published 2014).
# Chains of the proteins cited; added tags and fusions are not shown. Lines headed by an entry give the natural chain unless they say otherwise; changes in a name come on top.
# UniProt O00329: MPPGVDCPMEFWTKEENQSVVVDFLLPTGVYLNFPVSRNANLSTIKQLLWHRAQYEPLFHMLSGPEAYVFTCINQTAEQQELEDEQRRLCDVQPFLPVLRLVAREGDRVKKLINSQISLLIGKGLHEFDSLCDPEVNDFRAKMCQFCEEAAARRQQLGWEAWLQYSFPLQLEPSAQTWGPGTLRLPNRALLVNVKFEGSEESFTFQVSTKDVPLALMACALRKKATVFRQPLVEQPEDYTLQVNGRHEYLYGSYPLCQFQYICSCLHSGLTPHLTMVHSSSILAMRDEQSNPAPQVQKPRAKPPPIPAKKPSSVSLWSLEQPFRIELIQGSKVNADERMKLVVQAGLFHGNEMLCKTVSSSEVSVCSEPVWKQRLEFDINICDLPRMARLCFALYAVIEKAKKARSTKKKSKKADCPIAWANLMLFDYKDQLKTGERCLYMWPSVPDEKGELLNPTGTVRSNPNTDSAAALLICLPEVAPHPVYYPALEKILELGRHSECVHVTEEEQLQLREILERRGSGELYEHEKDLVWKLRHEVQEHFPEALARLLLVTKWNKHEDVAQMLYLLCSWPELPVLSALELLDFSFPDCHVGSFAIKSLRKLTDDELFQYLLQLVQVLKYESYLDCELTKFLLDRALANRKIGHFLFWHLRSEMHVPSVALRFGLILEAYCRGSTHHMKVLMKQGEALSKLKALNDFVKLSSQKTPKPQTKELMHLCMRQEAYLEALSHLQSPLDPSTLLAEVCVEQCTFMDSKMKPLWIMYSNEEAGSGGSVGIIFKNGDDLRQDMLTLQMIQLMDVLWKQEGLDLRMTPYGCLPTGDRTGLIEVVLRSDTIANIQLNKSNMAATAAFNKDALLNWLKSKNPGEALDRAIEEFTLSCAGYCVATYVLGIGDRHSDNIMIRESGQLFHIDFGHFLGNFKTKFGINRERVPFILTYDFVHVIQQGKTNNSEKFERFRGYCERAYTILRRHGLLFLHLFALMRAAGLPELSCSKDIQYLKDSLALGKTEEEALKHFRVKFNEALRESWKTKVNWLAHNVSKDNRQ
# Target: PI3K δ (Homo sapiens, UniProt O00329)
# Assay: In vitro IC50, PI3K δ
# Assay type: biochemical
row,Compound,IC50
1,Cc1ccccc1-n1c(Cn2nc(-c3cc(O)cc(F)c3)c3c(N)ncnc32)cc2cccc(C)c2c1=O [Compound 7],< 0.1 µM
2,CC(=O)Nc1nc2ccc(-c3nn(Cc4cc5cccc(C)c5c(=O)n4-c4ccccc4C)c4ncnc(N)c34)cc2s1 [Compound 53],< 0.1 µM
